Measured values: IntAct's records for PubMed 21172304

B1: Protein BTG2 (Homo sapiens), P78543 (parent)
chain: MSHGKGTDMLPEIAAAVGFLSSLLRTRGCVSEQRLKVFSGALQEALTEHYKHHWFPEKPSKGSGYRCIRINHKMDPIISRVASQIGLSQPQLHQLLPSELTLWVDPYEVSYRIGEDGSICVLYEEAPLAASCGLLTCKNQVLLGRSSPSKNYVMAVSS

Variants of: B1
Settings: with andr_human AR

effect of a mutation on the interaction | Variant
disrupting interaction | L92A;L96A
